The values below come from ChEMBL document CHEMBL1156685, “Synthesis and structure-activity relationships of N-6 substituted analogues of 9-hydroxy-4-phenylpyrrolo[3,4-c]carbazole-1,3(2H,6H)-diones as inhibitors of Wee1 and Chk1 checkpoint kinases” (Eur J Med Chem, 2008).

Sequences of proteins named here, by UniProt entry; tags and fusion partners are left off. A change or cut given only in a name is not applied to a line headed by its entry.
UniProt P30291: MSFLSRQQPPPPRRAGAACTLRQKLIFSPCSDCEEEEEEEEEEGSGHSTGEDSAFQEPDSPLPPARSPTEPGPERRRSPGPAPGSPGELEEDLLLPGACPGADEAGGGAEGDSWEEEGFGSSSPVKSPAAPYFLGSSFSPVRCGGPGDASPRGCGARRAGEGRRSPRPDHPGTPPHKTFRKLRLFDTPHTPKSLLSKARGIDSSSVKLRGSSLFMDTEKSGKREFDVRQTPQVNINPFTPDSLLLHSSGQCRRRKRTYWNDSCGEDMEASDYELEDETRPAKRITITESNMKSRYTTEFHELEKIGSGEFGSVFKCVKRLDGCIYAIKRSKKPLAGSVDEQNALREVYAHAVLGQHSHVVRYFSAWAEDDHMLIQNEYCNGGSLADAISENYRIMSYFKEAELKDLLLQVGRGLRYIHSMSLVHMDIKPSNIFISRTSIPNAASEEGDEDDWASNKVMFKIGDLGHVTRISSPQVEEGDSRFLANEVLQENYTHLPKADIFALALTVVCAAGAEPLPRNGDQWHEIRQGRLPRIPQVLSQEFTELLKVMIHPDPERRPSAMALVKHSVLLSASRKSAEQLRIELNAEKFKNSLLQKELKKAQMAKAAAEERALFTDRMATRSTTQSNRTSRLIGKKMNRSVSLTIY

In general, IC50 refers to the concentration at which inhibition is half-maximal.

Each structure is given as a SMILES string.

The assay has as its target Wee1-like protein kinase (Homo sapiens, UniProt P30291).
Compound `Cn1c2ccc(O)cc2c2c3c(c(-c4ccccc4)cc21)C(=O)NC3=O` came in with an IC50 of 140 nM. The value for `O=C(O)CCn1c2ccc(O)cc2c2c3c(c(-c4ccccc4)cc21)C(=O)NC3=O` was 23 nM. Under `O=C1NC(=O)c2c1c(-c1ccccc1)cc1c2c2cc(O)ccc2n1CCn1ccnc1` stands 230 nM; under `CN(C)CCNC(=O)CCn1c2ccc(O)cc2c2c3c(c(-c4ccccc4)cc21)C(=O)NC3=O`, 170 nM.
